Here are results for one compound from PubChem BioAssay AID250 (DTP/NCI, 2004).

Toxic doses and inconclusive results are not listed.

In this assay the test system is BDF1 mice, L1210 leukemia sc, survival T/C. The experiment in a line: NCI In Vivo Anticancer Drug Screen. Data for tumor model L1210 Leukemia (subcutaneous) in B6D2F1 (BDF1) mice. As to conditions: higher = longer survival. On the procedure: The antitumor activity of compounds was measured in mice bearing transplantable tumors. Survival or tumor size were measured and the results are expressed as the measurement made in the treated group (T) divided by the measurement made in the vehicle treated control group (C). The tumor model used in this assay is L1210 Leukemia (subcutaneous) in B6D2F1 (BDF1) mice

For the compound `CN(Cc1cnc2nc(N)nc(N)c2n1)c1ccc(C(=O)N[C@@H](CCC(=O)O)C(=O)O)cc1`, the T/C is 151 % of control (endpoint: mean survival time, dose: 40.0 mg/kg/injection, schedule: Q04DX003 (ip), vehicle: sodium bicarbonate); 121 % of control (endpoint: mean survival time, dose: 45.0 mg/kg/injection, schedule: Q04DX004 (ip), vehicle: other); 121 % of control (endpoint: median survival time, dose: 0.3 mg/kg/injection, schedule: Q01DX Z (sc), vehicle: other); 172 % of control (endpoint: median survival time, dose: 1.08 mg/kg/injection, schedule: Q01DX010 (sc), vehicle: other); 172 % of control (endpoint: median survival time, dose: 1.5 mg/kg/injection, schedule: Q01DX012 (ip), vehicle: sodium bicarbonate); 162 % of control (endpoint: median survival time, dose: 1.8 mg/kg/injection, schedule: Q01DX009 (ip), vehicle: sodium bicarbonate). Besides, the T/C was 172 % of control (endpoint: median survival time, dose: 1.8 mg/kg/injection, schedule: Q01DX015 (sc), vehicle: other); 172 % of control (endpoint: median survival time, dose: 3.02 mg/kg/injection, schedule: Q01DX Z (sc), vehicle: other); 172 % of control (endpoint: median survival time, dose: 3.75 mg/kg/injection, schedule: Q01DX Z (sc), vehicle: other); 172 % of control (endpoint: median survival time, dose: 5.0 mg/kg/injection, schedule: Q01DX025 (sc), vehicle: other); 172 % of control (endpoint: median survival time, dose: 8.4 mg/kg/injection, schedule: Q02DX Z (sc), vehicle: other).
